Reference: USH1168H, “Inhibitors of protein kinase C activity as protectors against septic shock and reducers of ARDS” (priority 1991, dated 1993)

Columns and labels:
rat aortic rings [1] = assay: Direct contraction of rat aortic rings by phorbol dibutyrate; type: cell-based; details: rings incubated with LPS 10 ng/ml, then contracted with PDB
Method: Four rings were prepared from each rat and one ring allocated into each medium formulation. Data is presented as in FIG. 1.
Tissue preparation and incubation. Male Sprague-Dawley rats (250-350 g, Taconic Farms, Germantown, N.Y.) were used. Rat thoracic aortic rings were prepared and incubated as detailed by McKenna (14). In brief, 4 or 6 rings were prepared from each rat. Care was taken during dissection to maintain the patency of the endothelium. Some aortas were de-endothelialized before sectioning into rings by perfusion with phosphate buffered saline (PBS) containing 1% deoxycholate for 30 sec followed by a PBS and bubble rinse for 5 min. Rings were incubated in DME (Dulbecco's Modified Eagle's medium) supplemented with 1% fetal calf serum, 100 μg/ml streptomycin, and 100 U/ml penicillin. During incubation, the rings were exposed to combinations of LPS (10 or 35 ng/ml), H7 (25 μM), HA1004 (N-(2-guanidinoethyl)-5-isoquinolinesulfonamide) (25 μM), sphingosine (20 μM), or their vehicles. […] Rings used in measures of contractile performance were placed individually in Petri dishes containing 1.2 ml DME and were distributed so that tissue isolated from each aorta was allocated to every combination of treatments within an experiment. […]
(§1) Measurement of aortic ring contraction. […] Contractions by six or eight rings were measured simultaneously and recorded on multichannel strip chart recorders. […]

rat aortic rings [2] = assay: NE-induced contraction of rat aortic rings after 16 h incubation with phorbol dibutyrate; type: cell-based
Method: (§2) (Panel B) Contraction to KCl by rings incubated and denoted with the same symbols as detailed above. Four rings were prepared from each rat and one ring allocated into each medium formulation to evaluate responses to NE. Rings were similarly prepared to determine responses to KCl. Data presented as in FIG. 1. N=6 rats apiece for assessment of responses to NE and KCl.
(§3) (Panel B) Contraction to KCl by rings incubated and denoted with the same symbols as detailed above. Four rings were prepared from each rat and one ring allocated into each medium formulation. Data is presented as in FIG. 1. N=8 rats for assessment of responses to both NE and KCl.
Tissue preparation and incubation. Male Sprague-Dawley rats (250-350 g, Taconic Farms, Germantown, N.Y.) were used. Rat thoracic aortic rings were prepared and incubated as detailed by McKenna (14). In brief, 4 or 6 rings were prepared from each rat. Care was taken during dissection to maintain the patency of the endothelium. Some aortas were de-endothelialized before sectioning into rings by perfusion with phosphate buffered saline (PBS) containing 1% deoxycholate for 30 sec followed by a PBS and bubble rinse for 5 min. […]
as §1

rat aortic rings [3] = assay: KCl-induced contraction of rat aortic rings after 16 h incubation with phorbol dibutyrate; type: cell-based
Method: as §2, §3
Tissue preparation and incubation. Male Sprague-Dawley rats (250-350 g, Taconic Farms, Germantown, N.Y.) were used. Rat thoracic aortic rings were prepared and incubated as detailed by McKenna (14). In brief, 4 or 6 rings were prepared from each rat. Care was taken during dissection to maintain the patency of the endothelium. Some aortas were de-endothelialized before sectioning into rings by perfusion with phosphate buffered saline (PBS) containing 1% deoxycholate for 30 sec followed by a PBS and bubble rinse for 5 min. Rings were incubated in DME (Dulbecco's Modified Eagle's medium) supplemented with 1% fetal calf serum, 100 μg/ml streptomycin, and 100 U/ml penicillin. During incubation, the rings were exposed to combinations of LPS (10 or 35 ng/ml), H7 (25 μM), HA1004 (N-(2-guanidinoethyl)-5-isoquinolinesulfonamide) (25 μM), sphingosine (20 μM), or their vehicles. […] Rings used in measures of contractile performance were placed individually in Petri dishes containing 1.2 ml DME and were distributed so that tissue isolated from each aorta was allocated to every combination of treatments within an experiment. […] All tissue isolated from an aorta (six rings) was allocated to a single treatment. […]
as §1

protein kinase C = assay: Protein kinase C activity in rat aortic rings after 16 h incubation; type: biochemical
Method: Tissue preparation and incubation. Male Sprague-Dawley rats (250-350 g, Taconic Farms, Germantown, N.Y.) were used. Rat thoracic aortic rings were prepared and incubated as detailed by McKenna (14). In brief, 4 or 6 rings were prepared from each rat. Care was taken during dissection to maintain the patency of the endothelium. Some aortas were de-endothelialized before sectioning into rings by perfusion with phosphate buffered saline (PBS) containing 1% deoxycholate for 30 sec followed by a PBS and bubble rinse for 5 min. Rings were incubated in DME (Dulbecco's Modified Eagle's medium) supplemented with 1% fetal calf serum, 100 μg/ml streptomycin, and 100 U/ml penicillin. During incubation, the rings were exposed to combinations of LPS (10 or 35 ng/ml), H7 (25 μM), HA1004 (N-(2-guanidinoethyl)-5-isoquinolinesulfonamide) (25 μM), sphingosine (20 μM), or their vehicles. […] Rings used in measures of contractile performance were placed individually in Petri dishes containing 1.2 ml DME and were distributed so that tissue isolated from each aorta was allocated to every combination of treatments within an experiment. […] All tissue isolated from an aorta (six rings) was allocated to a single treatment. The media and rings were rotated gently for 16-18 hr in an incubator at 37° C. under a 95% O2 -5% CO2 atmosphere.
Statistics. […]

[4] = 0.1 μM PDB, long-term incubation

With `CCCC(=O)O[C@@H]1[C@@H](C)[C@@]2(O)[C@@H](C=C(CO)C[C@]3(O)C(=O)C(C)=C[C@@H]23)[C@@H]2C(C)(C)[C@]12OC(=O)CCC` [PDB, 4β-phorbol-12,13-dibutyrate] the “maximum contractile performance to PDB after LPS” value (rat aortic rings [1]) was “performed much better than identically incubated sister rings contracted with NE”, the “maximum contraction or sensitivity to NE; contractile defects” value (rat aortic rings [2]; [4]) was “ineffective in altering maximum contraction or sensitivity to NE or KCl; also recorded: did not induce contractile defects” and the “maximal contraction and sensitivity to NE” value (rat aortic rings [2]; 1 or 10 μM PDB, 18 hr) was “significantly impaired in maximal contraction and sensitivity to NE”. For the same compound, the “maximum contraction or sensitivity to KCl” value (rat aortic rings [3]; [4]) was “ineffective in altering maximum contraction or sensitivity to NE or KCl”, the “sensitivity to KCl” value (rat aortic rings [3]; 10 μM PDB) was “less sensitive to KCl” and the “contractions when stimulated with KCl” value (rat aortic rings [3]; 1 or 10 μM PDB) was “significantly diminished contractions”. For the same compound, the “PKC activity in the cytosolic fraction” value (protein kinase C; PDB 1.0 μM or LPS 10 ng/ml, 16 h) was “large decreases in PKC activity in the cytosolic fraction; also recorded: significantly less cytosolic PKC activity in PDB-incubated rings in comparison to LPS-incubated rings” and the “PKC activity in the membrane fraction” value (protein kinase C; PDB 1.0 μM, long-term incubation) was “nonsignificant decreases in the membrane fraction”.

Entries after “also recorded” stand apart in the source; their conditions may differ.
